Patent publication US11891425B2, “Thioamide-modified peptides and uses thereof” (THE TRUSTEES OF THE UNIVERSITY OF PENNSYLVANIA, priority 2014, dated 2024)

Amino acid sequences for entries named in this document (tags omitted).
UniProt P27487, whole entry: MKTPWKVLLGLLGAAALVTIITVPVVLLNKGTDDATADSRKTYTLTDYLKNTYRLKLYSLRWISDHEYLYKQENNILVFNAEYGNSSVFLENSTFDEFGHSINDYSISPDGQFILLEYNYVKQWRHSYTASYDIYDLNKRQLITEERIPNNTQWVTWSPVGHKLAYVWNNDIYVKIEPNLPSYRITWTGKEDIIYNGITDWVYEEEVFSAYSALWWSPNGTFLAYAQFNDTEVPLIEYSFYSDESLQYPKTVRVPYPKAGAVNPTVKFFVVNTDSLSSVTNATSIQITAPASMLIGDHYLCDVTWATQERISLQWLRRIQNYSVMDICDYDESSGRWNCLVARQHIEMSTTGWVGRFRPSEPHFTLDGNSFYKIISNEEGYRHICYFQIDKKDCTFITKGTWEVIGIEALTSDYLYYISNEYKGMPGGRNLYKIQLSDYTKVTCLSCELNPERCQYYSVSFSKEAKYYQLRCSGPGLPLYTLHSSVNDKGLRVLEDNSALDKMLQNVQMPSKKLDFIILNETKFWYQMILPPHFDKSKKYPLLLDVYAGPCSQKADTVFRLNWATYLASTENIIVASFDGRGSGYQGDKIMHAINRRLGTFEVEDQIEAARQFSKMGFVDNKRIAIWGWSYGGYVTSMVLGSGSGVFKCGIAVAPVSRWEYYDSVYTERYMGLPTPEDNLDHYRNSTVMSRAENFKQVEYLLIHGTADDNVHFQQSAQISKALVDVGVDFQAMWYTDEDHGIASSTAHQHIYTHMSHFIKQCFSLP

Columns and labels:
DPP-4 = DPP-4 (Homo sapiens, UniProt P27487); experiment: in vitro degradation assay with DPP-4 (HPLC/MALDI MS, amount of intact peptide); conditions: in presence of DPP-4
Protocol: For this study, purified peptides were incubated with DPP-4 in assay buffer for various time periods. The reactions were quenched, and the products analyzed by HPLC/MALDI MS to determine the amount of intact peptide.
Purified peptides are incubated with DPP-4 in assay buffer for various time periods. The reaction is quenched and the products are analyzed by HPLC to determine the amount of intact peptide. MALDI MS is used to determine the identities of HPLC peaks.

[1] = stability in buffer without DPP-4 (auto-degradation); assay type: physicochemical

For `CC[C@H](C)[C@H](NC(=O)[C@H](Cc1ccccc1)NC(=O)[C@H](CCC(=O)O)NC(=O)[C@H](CCCCN)NC(=O)[C@H](C)NC(=O)[C@H](C)NC(=O)[C@H](CCC(N)=O)NC(=O)CNC(=O)[C@H](CCC(=O)O)NC(=O)[C@H](CC(C)C)NC(=O)[C@H](Cc1ccc(O)cc1)NC(=O)[C@H](CO)NC(=O)[C@H](CO)NC(=O)[C@@H](NC(=O)[C@H](CC(=O)O)NC(=O)[C@H](CO)NC(=O)[C@@H](NC(=O)[C@H](Cc1ccccc1)NC(=O)[C@@H](NC(=O)CNC(=O)[C@H](CCC(=O)O)NC(=S)[C@H](C)NC(=O)[C@@H](N)Cc1ccccc1)[C@@H](C)O)[C@@H](C)O)C(C)C)C(=O)N[C@@H](C)C(=O)N[C@@H](Cc1c[nH]c2ccccc12)C(=O)N[C@@H](CC(C)C)C(=O)N[C@H](C(=O)N[C@@H](CCCCN)C(=O)NCC(=O)N[C@@H](CCCNC(=N)N)C(N)=O)C(C)C` [GLP-1-F7A^s8], the “degradation by DPP-4 (in words)” value (DPP-4) was “not degraded by DPP-4” and the half-life [1] was about 24 h.
